Data published in patent US20210236512A1 (ZARODEX THERAPEUTICS LIMITED, priority 2018, published 2021).

Tested on: circulating immunoglobulins (IgG1, IgG2a, IgG2b, IgG3, IgA, IgM, kappa, lambda)
Assay: Wild type mouse study: circulating immunoglobulin profile by ELISA

SMILES | Circulating IgA levels compared to control (5 and 10 mg/kg IP, 21 days) | Other circulating immunoglobulin isotype classes (under the experimental conditions used) | Reduction in circulating IgA levels (haloperidol 1 mg/kg)
CN1CCN(C2=Nc3cc(Cl)ccc3Nc3ccccc32)CC1 [Clozapine, clozapine] | reduction | No other isotype classes were affected | –
O=C(CCCN1CCC(O)(c2ccc(Cl)cc2)CC1)c1ccc(F)cc1 [Haloperidol, haloperidol] | – | – | not observed
